AlphaSeq binding of Ab-14 light chain variants to a spike HR2 peptide

The target is the same throughout: PDVDLGDISGINAS, from the HR2 region of SARS-CoV-2 spike.

Ab-14 is the parent antibody, in scFv form: VH, then three GGGGS repeats, then VL. The heavy chain is unchanged in all variants.
VH: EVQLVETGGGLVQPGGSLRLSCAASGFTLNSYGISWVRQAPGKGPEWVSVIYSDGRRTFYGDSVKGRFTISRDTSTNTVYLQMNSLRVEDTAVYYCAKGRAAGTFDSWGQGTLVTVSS
VL: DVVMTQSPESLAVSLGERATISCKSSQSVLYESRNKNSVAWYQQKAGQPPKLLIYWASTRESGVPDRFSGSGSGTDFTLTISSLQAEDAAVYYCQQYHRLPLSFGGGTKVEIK

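The variants were designed computationally from a first round of random CDR variants and then made and measured. Group labels follow the data file (En: ensemble of fine-tuned language models; GP: Gaussian process model; HC: hill climbing; Gen: genetic algorithm; Gibbs: Gibbs sampling; a sequence that several methods proposed may carry one label only). The scFvs were displayed on barcoded MATa yeast, the peptide on MATalpha yeast. Pairs that bind mate more often; barcode pairs of the diploids are counted by sequencing. A regression on co-assayed BCL2-family reference pairs converts the normalised counts of each replicate to an apparent Kd. There are six technical replicates.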

The parent's light chain CDRs are KSSQSVLYESRNKNSVA, WASTRES, QQYHRLPLS; each variant's own CDRs replace them letter for letter. Variants here have more than six changes. Kd is apparent (estimated from mating counts) and averaged on the log scale over replicates with a signal. Smaller is tighter. "no signal" marks a missing value. The strain was present, yet no cells mated with the target were sequenced in any replicate, which points to weak or no binding. Order: sorted from the lowest average up, undetected variants last. The range of this assay differs from that of the first round, and the authors advise against merging the two.

CDR-L1	CDR-L2	CDR-L3	group	apparent Kd	replicates with signal
KLMQEDEYESRNPNSVA	QASERES	QQYHRLPLS	GP_Gibbs	280 pM	6/6
KLQQSNLYEDRNANNVA	NASQRES	QQYHRLPLS	GP_Gibbs	610 pM	6/6
KLREVQHVETKQKGNVA	DNSTRES	QDYYRLPLS	En_HC	760 pM	6/6
KFQQWWLYESRMQNNVA	NASQRES	QQYHRLPLS	GP_Gibbs	820 pM	6/6
KISQSWLYESRNSNSVA	NGSTREL	QDYHRLPLS	GP_Gibbs	850 pM	6/6
KISQEYLGESRNMNSVA	NASTREQ	QQYHRLPLS	GP_Gibbs	950 pM	6/6
KQDQSDGGEQRNKNSVA	EASTRCE	QQYHRLPLS	GP_Gibbs	1.2 nM	6/6
KYSFSELYESRNQNSVA	EASQREE	QQYHRLPLS	GP_Gibbs	1.3 nM	6/6
KSDQSELEESRNDNSVA	SANHRLS	QQYHRLPLS	GP_Gibbs	1.3 nM	6/6
KWSQLVLGEERNKMSVA	NASQREE	QQYHRLPLS	GP_Gibbs	1.6 nM	6/6
KLVQFMNRGTHHTSNIA	DAVNRLD	QQYARLPLV	En_Gen	1.6 nM	6/6
KWSILDLGGDRNKNSVA	HASLREQ	QQYHRLPLS	GP_Gibbs	1.7 nM	6/6
KLSQVTNSEHKLKNSIA	EMVTREK	QQYDRLPLS	En_HC	1.8 nM	6/6
MMSSLMGYESRHINNVA	QTSTREA	QQYDRLPLI	En_Gen	1.9 nM	6/6
IIEQGEYEQEQHKNAIA	DGHERMR	QQYYKLPLV	En_Gibbs	2.0 nM	6/6
KSSFVYGYESTNSNSVA	DASTRED	QQYHRLPLS	GP_Gibbs	2.0 nM	6/6
MVTQMAMTGMTNKRSVA	NAEMREK	QQYHRLPLI	En_Gen	2.4 nM	6/6
MISQLYNMGQFAINSVA	QASERYN	QQYDRLPLM	En_Gen	2.5 nM	6/6
KLSMITGHMSTQKNNVA	EMVTREE	QQYNRLPLA	En_Gen	2.9 nM	6/6
KLSSFTGTEKVHGNNVA	EMETRER	QQYNRLPLA	En_Gen	3.2 nM	6/6
KFSGSKEMVNKDQESIA	GSHTIQE	QQYSRLPLA	En_Gibbs	3.4 nM	6/6
HVELGVGGVQKYGSSVA	HASQRQS	QQYYQLPLT	En_Gibbs	3.8 nM	6/6
KLRQVTGYESYVRNSVA	QMSTRAE	QDYHRLPLS	En_HC	4.2 nM	6/6
SVTIEMLQQQEQYNSVA	GEQKTVD	QQYGRLPLS	En_Gibbs	4.4 nM	6/6
KLYQSEWYESRMCNSVA	NASVREV	QQYHRLPLS	GP_Gibbs	4.4 nM	6/6
KQQFSVLLESRQCNSVA	EASTREE	QQYHRLPLS	GP_Gibbs	4.5 nM	6/6
MISDLTMYGSRNKNSVA	DLSTRGR	QQYHRLPLS	En_HC	4.6 nM	6/6
TISQMTSLFSQSINNVA	EVSMREP	QQYDRLPLM	En_Gen	4.8 nM	6/6
ALSQSMDMTSRNVNSVA	DLTTRCN	QQYHRLPLS	En_HC	5.0 nM	5/6
IISQVDGYLMHNTNSIA	DQQTRGS	QQYDRLPLS	En_HC	5.2 nM	6/6
MISQLWNMGQFAINSVA	QASERCN	QQYDRLPLM	En_Gen	5.4 nM	6/6
KMQQSKLMESRNVNSVA	HASLRLE	QQYHRLPLS	GP_Gibbs	5.7 nM	6/6
KSSQLELYEDRMKNSVA	NASYRLS	QQYHRLPLS	GP_Gibbs	6.0 nM	6/6
KISQMIRVGSTHSNSIA	EEQTRAK	QQYHRLPLS	En_Gen	6.1 nM	6/6
KLLQTVMNETLNRNNVA	HMTTRED	QQYHRLPLS	En_HC	6.1 nM	6/6
KLQQADLYESRNANSVA	QASQRES	QCYHRLPLS	GP_Gibbs	6.5 nM	6/6
ALELFEMQMMKDINSIA	NTEYKTN	QQYVRLPFS	En_Gibbs	6.7 nM	6/6
KLSQVTRSESRNKNSIA	EMVTREV	QQYDRLPLS	En_HC	6.9 nM	6/6
TISQMFLGESRNRNSVA	QAETRES	QSYDRLPLS	En_HC	7.3 nM	6/6
KLSQSVNVTGKNKNSVA	ELSFREK	QQYERLPLS	En_HC	7.4 nM	6/6
NLVEMEGTNQTKMGNIA	SVDQRMS	QQYQRLPLI	En_Gibbs	9.3 nM	6/6
KIRWQQYSQSEMEANIA	QESTRHQ	QQYFRLPLS	En_Gibbs	9.7 nM	6/6
QLYAVQDLTSKNSNNVA	EQSTREN	QQYHRLPLS	En_HC	10 nM	6/6
KISFNMGETQRNKNSVA	EVSTVPE	QQYWRLPLS	En_HC	12 nM	6/6
MMSQVTGQGMRHRNNVA	QTSTREP	QQYDRLPLV	En_Gen	13 nM	6/6
MITEGQLGENKNSSNIA	SQNIKTD	QQYQRLPLV	En_Gibbs	15 nM	6/6
KIGGVTNGLSFSKNSVA	EQSTRED	QQYDRLPLS	En_HC	16 nM	6/6
MVSQLMLWGLHAKNSIA	EAQMRLN	QQYDRLPLF	En_Gen	20 nM	1/6
SLGLVTMLEYAGRNSVA	NNSTRED	QQYDRLPLS	En_Gen	20 nM	6/6
KVSPSWLYEDRNWNSVA	QASCRNS	QQYHRLPLS	GP_Gibbs	20 nM	5/6
KLRQLMHIESFNKNNVA	EMTTREK	QSYDRLPLS	En_HC	21 nM	6/6
TITMFMDNLSHNRNNVA	DTSTLGS	QSYDRLPLS	En_Gen	22 nM	6/6
NISHFMDVTAKHNNNVA	EMTMRES	QQYHHLPLS	En_Gen	22 nM	6/6
VLGQNTDEREMYCDNIA	DATHREA	QQYYRLPFV	En_Gibbs	26 nM	6/6
MISQLYNMGSFAINSVA	QASERCN	QQYDRLPLM	En_Gen	27 nM	6/6
HITYGMMLMGRHSKSIA	QAEERAK	QQYDRLPLI	En_Gen	28 nM	5/6
IISGSMLMQSRNKNSVA	NAETREY	QHYDRLPLS	En_HC	34 nM	6/6
KISQNMGETQRNKHSVA	EVSLVPS	QQYFRLPLS	En_HC	52 nM	6/6
MVSQLMLWGHLAKNSIA	EAQTRVN	QQYDRLPLF	En_Gen	53 nM	6/6
KISGMSNHQSSVANNVA	ENVTRVN	QQYFRLPLA	En_Gen	61 nM	5/6
KLSEFMRGLMGRKDSIA	DNNTRGA	QQYDRLPLS	En_Gen	64 nM	1/6
VSDAFNFSDGQKWNNVA	QTSVRLQ	QDYQRLPLM	En_Gibbs	120 nM	5/6
MISQLYNMGTFAINSVA	QASERCN	QQYDRLPLM	En_Gen	120 nM	5/6
KVSEFPRGLMSRQDSIA	DNTTREN	QQYDRLPLS	En_Gen	740 nM	1/6
MLSEVLHMLGVAKNSIA	DLVLRAN	QQYMRLPLM	En_Gen	no signal	0/6
QMFFQLFEQGNRSNPIA	HESMRET	QQYASLPLT	En_Gibbs	no signal	0/6

Picked from the list: the 8 lowest averages where every replicate gave a value.

CDR-L1	CDR-L2	CDR-L3	group	apparent Kd	replicates with signal
KLMQEDEYESRNPNSVA	QASERES	QQYHRLPLS	GP_Gibbs	280 pM	6/6
KLQQSNLYEDRNANNVA	NASQRES	QQYHRLPLS	GP_Gibbs	610 pM	6/6
KLREVQHVETKQKGNVA	DNSTRES	QDYYRLPLS	En_HC	760 pM	6/6
KFQQWWLYESRMQNNVA	NASQRES	QQYHRLPLS	GP_Gibbs	820 pM	6/6
KISQSWLYESRNSNSVA	NGSTREL	QDYHRLPLS	GP_Gibbs	850 pM	6/6
KISQEYLGESRNMNSVA	NASTREQ	QQYHRLPLS	GP_Gibbs	950 pM	6/6
KQDQSDGGEQRNKNSVA	EASTRCE	QQYHRLPLS	GP_Gibbs	1.2 nM	6/6
KYSFSELYESRNQNSVA	EASQREE	QQYHRLPLS	GP_Gibbs	1.3 nM	6/6

The authors' rule: three or more of the six replicates give a measured affinity, fewer mean a poor binder. As a blank, each scFv also met three strains without target: over all light chain designs, 4% of these pairings were detected, typically at 430 nM and seldom below 38 nM.

The measurements come from Li et al. 2023 (doi:10.1038/s41467-023-39022-2) through the FLAb antibody collection.